Results published in patent US3937809A, “Addition compound of a nucleotide and an amino acid and the use thereof in protection against actinic radiation” (priority 1974, dated 1976).

Tests used:
Assay type in all cases: physicochemical
pH of solution (Table I) = conditions: c=0.005
Source text: The following Table 1 lists additional compounds of the invention along with their physical properties.
Molecular Brutto N(%) pH UV- Extinction coefficients

[1] = Solubility in water at 20°C (Table 3)
[2] = UV absorption in % at 300, 280 and 240 nm (Table 2)
Source text: The following Table illustrates the ultraviolet absorption characteristics at wave lengths of 300 nm, 280 nm, and 240 nm for the compounds of the invention, as well as other known compounds which have been used in the past as sun protective agents.

[3] = UV spectrum and extinction coefficients in water (Table I); conditions: for mol.Ext.coeff. ε / Extinction coefficients E250/E260 / Extinction coefficients E280/E260 / Extinction coefficients E290/E260: c=0.005, d-l; for Extinction coefficients E250/E260 / Extinction coefficients E280/E260 / Extinction coefficients E290/E260: ratio

Substance	pH (pH of solution (Table I))	Solubility in Water at 20°C (%) [1] [%]	UV Absorption in %, 240 nm [2] [%]	UV Absorption in %, 280 nm [2] [%]	UV Absorption in %, 300 nm [2] [%]	UV-spectrum λmax [3] [mμ]	mol.Ext.coeff. ε [3]	Extinction coefficients E250/E260 [3]	Extinction coefficients E280/E260 [3]	Extinction coefficients E290/E260 [3]
Adenosine-5'-mono phosphoric acid-Na-(p-aminobenzoate) [No. 19]	6.8	4.00	77	90	65	210	210500±4%	0.73	0.50	0.22
Cytidine-5'-mono-phosphoric acid-(Na-tyrosine)2 [No. 10]	6.65					224	189000±4%	0.75	1.15	0.40
Adenosine-5'-mono-phosphoric acid-(p-aminobenzoic acid)2 [No. 13]	6.2					265	236000±4	0.82	0.89	0.57
Adenosune-5'-mono phosphoric acid-(o-Na-aminophenol-sulfonate)2 [No. 7]	6.35					274	332000±4%	0.82	0.45	0.46
Uridine-5-mono-phosphoric acid-(Na-tryptophane)2 [No. 6]	7.25					222	329200±4%	0.71	0.76	0.30
Cytidine-5'-mono-phosphoric acid-(Na-tryptophane)2 [No. 12]	7.0					223	295500±4%	0.71	1.11	0.42
Guanosine-5'-mono-phosphoric acid-(5-aminonaphthalene-1-sulfate)2 [No. 16]	6.85					210	333000±4%	1.86	0.47	0.31
Uridine-5'-mono-phosphoric acid-(Na-histidine)2 [No. 4]	7.0					210	156000±4%	0.75	0.42	0.09
Uridine-5'-mono-phosphoric acid-(p-amino benzoate)2 [No. 18]	6.65	5.00	79	99	76	260	231000±4%	0.82	0.69	0.33
Uridine-5'-mono-phosphoric acid-(tryptophane)2 [No. 1]	6.5					233	278000±4%	0.77	0.69	1.51
Cytidine-5'-mono-phosphoric acid-(Na-o-aminophenol sulfonate)2 [No. 8]	6.60					215	298000±4%	1.41	1.07	0.69
Uridine-5-Na-mono-phosphoric acid-(Na-p-aminobenzoate) [No. 3]	6.95	9.20	77	95	52	206	173500±4%	0.79	0.71	0.32
Guanosine-5'-mono-phosphoric acid (1-amino-2-hydroxy-naphthlene sulfate)2 [No. 17]	6.85					215	346000±4%	1.37	0.53	0.41
Guanosine-5'-mono-phosphoric acid-(5-aminosulfosal-icylate)2 [No. 15]	7.05					215	358000±4%	1.3	0.44	0.14
Uridine-5'-mono-phosphoric acid-(Na-tyrosine)2 [No. 11]	7.05					224	164500±4%	0.64	0.62	0
Adenosine-5'-mono-phosphoric acid-(Na-p-aminobenzoate)2 [No. 2]	6.5	1.00	73	100	99	265	253000±4%	0.89	0.70	0.4
Adenosine-5'-mono-phosphoric acid-(Na-sulfanilate)2 [No. 9]	6.50					208	265500±4%	1.06	0.21	0.11
Cytidine-5'-Na-mono-phosphoric acid-(Na-p-amino-benzoic acid) [No. 14]	7.35	1.00	78	97	73	206	161000±4%	0.66	1.00	0.51
Cytidine-5'-mono-phosphoric acid-(p-aminobenzoate)2 [No. 20]	5.9	> 10.00	78	100	98	270	255500±4%			0.35
o-Aminophenol sulfate			98	70	72					
